## Ab-91 heavy chain CDR variants: yeast mating affinities

Values reported by Engelhart et al. 2022, doi:10.1038/s41597-022-01779-4 (FLAb copy).

Antigen: PDVDLGDISGINAS, a 14-residue peptide of the SARS-CoV-2 spike HR2 region.

Parent scFv Ab-91: VL joined to VH by the linker GGGGSGGGGSGGGGS. Changes lie in the heavy chain CDRs alone.
VL: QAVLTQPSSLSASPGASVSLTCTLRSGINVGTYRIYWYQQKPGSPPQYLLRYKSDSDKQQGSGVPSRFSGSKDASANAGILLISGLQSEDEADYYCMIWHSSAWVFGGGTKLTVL
VH: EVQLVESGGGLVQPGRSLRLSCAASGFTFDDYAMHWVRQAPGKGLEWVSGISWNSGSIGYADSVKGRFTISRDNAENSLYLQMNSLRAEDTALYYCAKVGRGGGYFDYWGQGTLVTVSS

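Phage display of a naive human antibody library on the peptide gave the parent. AAYL51 was designed without a model: most single CDR substitutions and a random sample of double and triple ones. The scFvs were displayed on barcoded MATa yeast, the peptide on MATalpha yeast. Mating (16 h, 30 °C) was followed by selection of diploids and sequencing of their barcodes. A regression on co-assayed BCL2-family reference pairs converts the normalised counts of each replicate to an apparent Kd. Each pool was mated in three replicate cultures.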

Changes read parent residue, position, new residue, counted from the first residue of the VH shown.
All variants listed here change D30 of the VH, counted from its first residue.
Values are log10 of the apparent Kd in nM; lower means stronger binding.
A mean of the replicates is given; it leaves out those without a signal.
"ND" means that the variant was in the library but no mating with the target was seen in that replicate; the authors take this as a sign of poor binding, and no number exists.
The list is sorted by this average, lowest first, undetected variants last.

For D30N/D62E, the assay gave 1.18, 1.29, 0.81 (mean 1.09; controls 2 of 9). Variant D30W/Y32S/M34C gave 1.51, 1.29, 1.22 (mean 1.34; controls 1 of 9). Variant D30Q/D31M/A61H gave 1.67, 1.53, 1.22 (mean 1.47; controls 0 of 9). Variant D30E gave 1.91, 1.84, 1.80 (mean 1.85; controls 2 of 9). Variant D30T/G56F/I58L showed 2.25, 2.24, 1.75 (mean 2.08; controls 4 of 9). With D30I the result was 2.20, 2.45, 2.26 (mean 2.31; controls 2 of 9). For D30C/D31H/K65H, the assay gave 2.52, 2.38, 2.05 (mean 2.32; controls 4 of 9). Variant D30H/V64E/Y108H showed 2.25, 2.85, 2.19 (mean 2.43; controls 4 of 9).

Variant D30V/R101Q/Y105K gave 2.45, 2.66, 2.82 (mean 2.64; controls 7 of 9). Variant D30E/G56T/R101S gave 2.70, 3.12, 2.65 (mean 2.82; controls 1 of 9). Variant D30M/H35R/I58L gave ND, ND, 3.44 (controls 1 of 9). Variant F29P/D30I/N54L showed ND, ND, 3.49 (controls 0 of 9). Variant D30M/K65N/R101D gave ND, 3.36, 3.67 (mean 3.51; controls 1 of 9). With D30F/S57W/S63W the result was ND, ND, 3.71 (controls 0 of 9). With D30M/Y32W/V99E the result was 2.97, 4.52, ND (mean 3.75; controls 0 of 9). Variant D30L/S63C/G104T showed ND, 3.76, ND (controls 0 of 9).

Variant D30V/V64M/D107M showed ND, 3.78, ND (controls 0 of 9). With D30E/S52E/I58P the result was ND, 3.94, ND (controls 0 of 9). Variant G26W/D30I showed 3.99, ND, ND (controls 2 of 9). For F27E/D30L/F106S, the assay gave 4.31, ND, ND (controls 0 of 9). Variant D30S/S63E/G103A showed 4.42, 4.64, ND (mean 4.53; controls 1 of 9). For D30N/I51W/V99M, the assay gave 4.53, ND, ND (controls 6 of 9). With D30Y/D107G the result was 4.89, ND, 4.26 (mean 4.57; controls 7 of 9). For G26L/D30L/G50A, the assay gave ND, 4.74, ND (controls 4 of 9).

Variant G26W/D30T/A33Y showed 4.42, 5.05, ND (mean 4.74; controls 3 of 9). With D30H/F106I/Y108K the result was 4.98, 4.24, 5.61 (mean 4.94; controls 6 of 9). Variant D30Y/S52K/V64M showed 5.07, ND, ND (controls 2 of 9). Variant G26W/D30P/G103I gave ND, ND, 5.16 (controls 1 of 9). Variant D30A/K65Q gave ND, ND, ND (controls 0 of 9). Variant D30S/G56T/Y60P gave ND, ND, ND (controls 0 of 9). Variant D30R/Y32K/G102Y showed ND, ND, ND (controls 0 of 9). For D30C/A33T/M34Y, the assay gave ND, ND, ND (controls 2 of 9).

For D30E/H35G/S55E, the assay gave ND, ND, ND (controls 1 of 9). Variant F27W/D30R/G59K gave ND, ND, ND (controls 2 of 9). Variant D30P/Y105D gave ND, ND, ND (controls 3 of 9). Variant D30P/H35Q/A61N gave ND, ND, ND (controls 0 of 9). Variant T28D/D30E/D31C showed ND, ND, ND (controls 0 of 9). For D30G/G56V/S57W, the assay gave ND, ND, ND (controls 1 of 9). Variant D30A/G103I showed ND, ND, ND (controls 0 of 9). Variant D30V/G50P/S52V gave ND, ND, ND (controls 0 of 9).

Variant F29A/D30N/D31W showed ND, ND, ND (controls 3 of 9). Variant F27L/D30M/F106Y gave ND, ND, ND (controls 2 of 9). Variant F29R/D30Y/N54G gave ND, ND, ND (controls 1 of 9). Variant D30E/W53H/G100Q gave ND, ND, ND (controls 2 of 9). Variant D30E/Y32R/S55A gave ND, ND, ND (controls 1 of 9). Variant D30V/D31V/N54V showed ND, ND, ND (controls 0 of 9). With D30I/H35T the result was ND, ND, ND (controls 0 of 9). Variant D30V/A61T gave ND, ND, ND (controls 2 of 9).

Empty control strains, which show no peptide, gave a signal in 21% of pairings with library AAYL51; the median was 4.54 and 95% of these signals were weaker than 3.26. No background was subtracted. The control count says in how many pairings with the empty strains this scFv gave a signal.
In this assay the parent's reference entry averaged 1.86; its copy inside this library read 0.88.